This test concerns Dopamine Receptor. Nature of the test: Inhibition of apomorphine induced climbing in the mouse (central dopamine receptor blocking activity). Particulars: apomorphine 1mg/kg s.c. Type of test: in vivo.

For the substance “5-hlethanesu-lphonylamido-2-rnethoxy-3-methyl-N-[3a-[8-benzyl-8-azabicyclo(3.2.1)octyl}]benzamide [Compound 10]”, the “CNS (Climbing) ED50” value was “ED50 9.3 mg/kg s.c”.

The values are drawn from patent publication EP0101641A2, “Sulfonylamino-aza-bicyclo-alkyl derivatives” (BEECHAM GROUP PLC, priority 1982, dated 1984).
